{
  "sequences": {"note": "Chains of the proteins cited; added tags and fusions are not shown. Lines headed by an entry give the natural chain unless they say otherwise; changes in a name come on top.", "UniProt Q9UGN5": "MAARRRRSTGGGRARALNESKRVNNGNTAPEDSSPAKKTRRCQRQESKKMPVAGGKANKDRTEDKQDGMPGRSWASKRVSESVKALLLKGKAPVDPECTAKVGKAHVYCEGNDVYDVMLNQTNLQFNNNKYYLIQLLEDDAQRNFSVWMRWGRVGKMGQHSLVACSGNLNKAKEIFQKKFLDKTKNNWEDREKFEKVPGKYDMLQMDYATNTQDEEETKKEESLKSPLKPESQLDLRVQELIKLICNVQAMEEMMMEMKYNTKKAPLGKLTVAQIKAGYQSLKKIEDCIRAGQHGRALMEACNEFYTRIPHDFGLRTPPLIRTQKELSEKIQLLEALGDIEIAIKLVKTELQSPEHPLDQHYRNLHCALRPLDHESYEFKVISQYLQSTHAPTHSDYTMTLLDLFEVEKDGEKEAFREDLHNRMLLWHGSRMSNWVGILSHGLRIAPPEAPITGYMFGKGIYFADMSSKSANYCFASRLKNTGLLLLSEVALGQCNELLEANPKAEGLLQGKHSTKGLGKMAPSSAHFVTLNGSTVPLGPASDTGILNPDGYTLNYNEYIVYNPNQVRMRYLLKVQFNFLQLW"},
  "source": "ChEMBL document CHEMBL3994596",
  "about": "“Structural Basis for Potency and Promiscuity in Poly(ADP-ribose) Polymerase (PARP) and Tankyrase Inhibitors” (J Med Chem, 2017)",
  "molecular_target": "Poly [ADP-ribose] polymerase 2 (Homo sapiens, UniProt Q9UGN5)",
  "data": [
    {"smiles": "Cc1cc(N2C[C@@H](C)N[C@@H](C)C2)ncc1-c1ccc(-c2nc3c(ccn3C)c(=O)[nH]2)cc1", "values": [
      {"measurement": "IC50", "result": 990, "unit": "nM"}
    ]}
  ]
}
